Test results from patent US20150203579A1 (Regeneron, published 2015).
Residue numbers refer to the chain shown, from its start. Values belong to the binder of their own block, whether it stands above or below them.

Experiments:
[1] = target: PD-1 chimera: extracellular domain of human PD-1 with trans-membrane and cytoplasmic domains of human CD300a, … (human, UniProt Q9UGN4, in part); assay: cell-based or functional assay
[2] = target: T1, recombinant human PD-1 dimer expressed with a C-terminal mouse IgG2a Fc tag (human); assay: competition ELISA: 1.5 nM hPD-1-mFc to coated hPD-L1-hFc
T1 construct: also called hPD-1-mFc
T1 chain: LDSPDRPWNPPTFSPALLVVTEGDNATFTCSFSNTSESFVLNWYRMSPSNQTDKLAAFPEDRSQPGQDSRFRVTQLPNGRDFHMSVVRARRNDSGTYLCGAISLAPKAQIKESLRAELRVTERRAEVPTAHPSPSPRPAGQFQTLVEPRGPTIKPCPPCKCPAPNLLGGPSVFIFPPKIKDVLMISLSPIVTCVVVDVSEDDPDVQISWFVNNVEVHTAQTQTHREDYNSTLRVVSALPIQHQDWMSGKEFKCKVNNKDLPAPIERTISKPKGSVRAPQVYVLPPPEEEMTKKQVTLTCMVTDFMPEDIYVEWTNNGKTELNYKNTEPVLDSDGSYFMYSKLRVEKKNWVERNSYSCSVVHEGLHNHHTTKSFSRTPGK

[3] = target: T2, full length human PD-1 on HEK293/hPD-1 cells (human, UniProt Q15116); assay: FACS dose response, HEK293/hPD-1 cells
[4] = target: T2, full length human PD-1 on HEK293/hPD-1 …; assay: FACS, 100 nM mAb, HEK293/hPD-1 cells;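 note: antibodies incubated with cells for 15-30 min on ice, bound antibody detected through a secondary F(ab′)2 by flow cytometry, with parental HEK293 cells tested in parallel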
[5] = target: T1, recombinant human PD-1 dimer expressed …; assay: BLI Octet: 100 nM hPD-1-mFc + 500 nM mAb to captured hPD-L1-hFc
[6] = target: T3, human PD-1 dimer (human PD-1-mFc or human PD-1-hFc) (human, UniProt Q15116 25-170); assay: SPR, mAb captured, 25C;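 note: surface plasmon resonance on Biacore, PD-1 flowed over captured anti-PD-1 antibodies, rate constants from a 1:1 binding model fit, KD taken as kd/ka and t½ as ln2/(60·kd)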
T3 construct: also called hPD-1-mFc; hPD1-hFc
T3 chain: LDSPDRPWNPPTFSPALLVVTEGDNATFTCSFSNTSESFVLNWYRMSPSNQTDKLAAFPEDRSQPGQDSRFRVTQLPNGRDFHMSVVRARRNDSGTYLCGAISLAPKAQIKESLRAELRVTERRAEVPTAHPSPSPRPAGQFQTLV

[7] = target: T3, human PD-1 dimer (human PD-1-mFc or …); assay: SPR, mAb captured, 37C;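 note: Real-time Biacore biosensor, PD-1 dimer flowed over anti-PD-1 antibody surface, rate constants fitted to a 1:1 model, KD derived as kd/ka and t½ as ln2/(60·kd)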
[8] = target: T4, recombinant cynomolgus monkey PD-1 expressed with a C-terminal myc-myc-hexahistidine tag (cynomolgus monkey (Macaca fascicularis)); assay: SPR, mAb captured, 37C;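 note: rate constants from fitting sensorgrams to a 1:1 binding model, with Kd computed as koff/kon and half-life as ln2/(60·koff), PD-1 flowing over anti-PD-1 antibody surfaces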
T4 construct: monomeric; also called MfPD-1-MMH
T4 chain: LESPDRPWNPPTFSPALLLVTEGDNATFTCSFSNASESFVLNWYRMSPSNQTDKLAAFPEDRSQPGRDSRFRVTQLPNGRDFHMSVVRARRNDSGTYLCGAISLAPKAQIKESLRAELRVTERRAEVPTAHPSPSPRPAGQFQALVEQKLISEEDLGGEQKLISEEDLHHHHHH

[9] = target: T5, recombinant human PD-1 expressed with a C-terminal myc-myc-hexahistidine tag (human); assay: SPR, mAb captured, 37C;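 note: rate constants from fitting sensorgrams to a 1:1 binding model, KD derived as kd divided by ka and half-life as ln2/(60·kd)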
T5 construct: monomeric; also called hPD-1-MMH; human PD-1-MMH
T5 chain: T4 chain with E2D, L19V, A35T, R67Q, A144T

[10] = target: T4, recombinant cynomolgus monkey PD-1 …; assay: SPR, mAb captured, 25C;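 note: rates from fitting Biacore data for PD-1 binding to anti-PD-1 antibodies with a 1:1 model, KD computed as koff/kon and t½ as ln2/(60·koff)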
[11] = target: T6, recombinant human PD-1 expressed with a C-terminal myc-myc-hexahistidine tag (human); assay: SPR (Biacore), mAb captured, hPD-1-MMH injected, 25 C;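 note: rate constants obtained by fitting sensorgrams to a 1:1 binding model, KD derived as kd/ka and half-life as ln2/(60·kd) in minutes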
T6 construct: also called hPD-1-MMH; human PD-1-MMH
T6 chain: T4 chain with E2D, L19V, A35T, R67Q, A144T

- Concentration (M) of Antibody at 150% activation [1]: 5.24e-09 M
- % blocking at 200 nM antibody [2]: 74%
- IC50 [2]: 1.5 nM
- EC50 [3]: 0.171 nM
- Max Geom. Mean MFI @ 100 nM [3]: 19200 MFI
- MFI [4]: 47300 MFI
- % Blocking [5]: 114%
- binding of the mixture (nm) [5]: -0.01 nm
B1: H2aM7790N (antibody, V domains shown)
VH: EVQLVESGGGLVKPGGSLRLSCAASGFKFSNEWMSWVRQAPGKGLEWVGRIKSKTDGGTTDYAAPVKGRFTISRDDSKNTLYLQMNSLKTEDTAVYYCTTDQDFWSGYYTGADYYGMDVWGQGTMVTVSS
VL: [sequence of about 100 residues not given]
notes: human variable regions, mouse IgG2a Fc; also called H2M7790N

- Kd [6]: 0.162 nM
- koff [6]: 3.02e-05 s⁻¹
- kon [6]: 186000 M⁻¹ s⁻¹
- t½ [6]: 383 min
- Kd [7]: 0.422 nM
- koff [7]: 8.49e-05 s⁻¹
- kon [7]: 201000 M⁻¹ s⁻¹
- t½ [7]: 136 min
- Kd [8]: 271 nM
- koff [8]: 0.00693 s⁻¹
- kon [8]: 25500 M⁻¹ s⁻¹
- t½ [8]: 1.7 min
- Kd [9]: 84.9 nM
- koff [9]: 0.0052 s⁻¹
- kon [9]: 61300 M⁻¹ s⁻¹
- t½ [9]: 2.2 min
- Kd [10]: 30.1 nM
- koff [10]: 0.000937 s⁻¹
- kon [10]: 31100 M⁻¹ s⁻¹
- t½ [10]: 12 min
B2: H2aM7790N (antibody, mouse IgG2a, V domains shown)
VH: B1 VH
VL: [sequence of about 100 residues not given]
notes: Human variable regions, mouse IgG2a Fc; also called H2M7790N

- Kd [11]: 17.8 nM
- koff [11]: 0.000823 s⁻¹
- kon [11]: 46300 M⁻¹ s⁻¹
- t½ [11]: 14 min
B3: H2aM7790N (antibody, mouse IgG2a, V domains shown)
VH: B1 VH
VL: [sequence of about 100 residues not given]
notes: Human variable domains, mouse IgG2a Fc; also called H2M7790N
